Key:
[1] = test system: Staphylococcus aureus (KCTC 1621); settings: Gram-positive; serial 2-fold dilutions in 1% peptone, 1 to […]; 18 h incubation; lowest concentration causing 100% inhibition of growth (no visible turbidity)
Protocol: (§1) The bacterial cells were grown overnight for 18 h at 37 °C in 10 mL of Mueller Hinton broth (MHB). The 10 μL of this culture was inoculated into 10 mL of fresh MHB and incubated for an additional 3 h at 37 °C to obtain mid-logarithmic phase organisms. Aliquots (100 μL) of bacterial cell suspension at 4 × 10^6 CFU/mL in 1% peptone were added to 100 μL of the sample solutions (serial 2-fold dilutions in 1% peptone). […] The MIC values were determined after 18 h of incubation.

[2] = test system: P. aeruginosa (KCTC 1637); settings: Gram-negative; serial 2-fold dilutions in 1% peptone, 1 to […]; 18 h incubation; lowest concentration causing 100% inhibition of growth (no visible turbidity)
Protocol: as §1

E. coli (KCTC 1682) = settings: Gram-negative; serial 2-fold dilutions in 1% peptone, 1 to […]; 18 h incubation; lowest concentration causing 100% inhibition of growth (no visible turbidity)
Protocol: as §1

[3] = test system: Staphylococcus epidermidis (KCTC 1917); settings: Gram-positive; serial 2-fold dilutions in 1% peptone, 1 to […]; 18 h incubation; lowest concentration causing 100% inhibition of growth (no visible turbidity)
Protocol: as §1

CC[C@H](C)[C@H](NC(=O)CN)C(=O)NCC(=O)N[C@@H](C)C(=O)N[C@H](C(=O)N[C@@H](CC(C)C)C(=O)N[C@@H](CCCCN)C(=O)N[C@H](C(=O)N[C@@H](CC(C)C)C(=O)N[C@H](C(=O)N[C@H](C(=O)NCC(=O)N[C@@H](CC(C)C)C(=O)N1CCC[C@H]1C(=O)N[C@@H](C)C(=O)N[C@@H](CC(C)C)C(=O)N[C@H](C(=O)N[C@@H](CO)C(=O)N[C@@H](Cc1c[nH]c2ccccc12)C(=O)N[C@H](C(=O)N[C@@H](CCCCN)C(=O)N[C@@H](CCCNC(=N)N)C(=O)N[C@@H](CCCCN)C(=O)N[C@@H](CCCNC(=N)N)C(=O)N[C@@H](CCC(N)=O)C(=O)N[C@@H](CCC(N)=O)C(N)=O)[C@@H](C)CC)[C@@H](C)CC)[C@@H](C)O)[C@@H](C)O)C(C)C)C(C)C [melittin, reference compound]
16 µg/mL: MIC, Staphylococcus aureus (KCTC 1621) [1] | MIC, P. aeruginosa (KCTC 1637) [2] | MIC, E. coli (KCTC 1682) (E. coli (KCTC 1682)) | MIC, Staphylococcus epidermidis (KCTC 1917) [3]

From PMC7279249, “Synthesis of Fmoc-Triazine Amino Acids and Its Application in the Synthesis of Short Antibacterial Peptidomimetics” (International Journal of Molecular Sciences, 2020)
